Test results published in patent US20090155339A1, “Biocompatible Antimicrobial Filament Material” (AESCULAP AG & CO. KG, priority 2005, published 2009).

Which Solubility in chloroform (chloroform) does the source give for PHMB stearate here?
The Solubility in chloroform was “at most 30 g/l”.

What about the Solubility in water (water) of the same substance?
Its Solubility in water is < 0.1 g/L.
